According to patent US20240166755A1, “CHIMERIC ANTIGEN RECEPTORS TARGETING CANCER” (University of Southern California, priority 2016, published 2024):

B1: CD8SP-175-(vL-vH)-Myc-CD28z-T2A-PAC(031615-Q04): CAR construct targeting MPL, 175 scFv, CD28 costimulatory domain (protein)
chain: MALPVTALLLPLALLLHAARPDQIVLTQSPAIMSASPGEKVTISCSASSSVSYMYWYQQKPGSSPKPWIYRTSNLASGVPARFSGSGSGTSYSLTISNMEAEDAAAYYCQQYHSYPTTFGGGTKLEVKGGGGSGGGGSGGGGSEVQLVESGGGLVQPKGSLKLSCAASGFSFNTYAMNWVRQAPGKGLEWIAHIRSKSNNFATYYADSVKDRFSISRDASENILFLQMNNLKTEDTAMYYCVRQGGDFPMDYWGQGTSVTVSSTREQKLISEEDLKIEVMYPPPYLDNEKSNGTIIHVKGKHLCPSPLFPGPSKPFWVLVVVGGVLACYSLLVTVAFIIFWVRSKRSRLLHSDYMNMTPRRPGPTRKHYQPYAPPRDFAAYRSRVKFSRSADAPAYQQGQNQLYNELNLGRREEYDVLDKRRGRDPEMGGKPRRKNPQEGLYNELQKDKMAEAYSEIGMKGERRRGKGHDGLYQGLSTATKDTYDALHMQALPPRSSGSGEGRGSLLTCGDVEENPGPHMTEYKPTVRLATRDDVPRAVRTLAAAFADYPATRHTVDPDRHIERVTELQELFLTRVGLDIGKVWVADDGAAVAVWTTPESVEAGAVFAEIGPRMAELSGSRLAAQQQMEGLLAPHRPKEPAWFLATVGVSPDHQGKGLGSAVVLPGVEAAERAGVPAFLETSAPRNLPFYERLGFTVTADVEVPEGPRTWCMTRKPGA
modifications: listed as DNA
notes: CAR construct targeting MPL, 175 scFv, CD28 costimulatory domain
B2: CD8SP-MPL-VB22Bw4-(vL-vH)-Myc-CD28z-T2A-PAC(031615-B06): CAR construct targeting MPL, VB22Bw4 scFv, CD28 costimulatory domain (protein)
chain: MALPVTALLLPLALLLHAARPDDIVMTQSPLSLPVTPGEPASISCRSSKSLLHSNGNTYLYWFLQKPGQSPQLLIYRMSNLASGVPDRFSGSGSGTDFTLKISRVEAEDVGVYYFMQHIEYPFTFGQGTKLEIKGGGGSGGGGSGGGGSQVQLVQSGPEVKKPGASVKVSCKASGYTFTNSWMNWVRQRPGKGLEWIGRIYPGDGETIYNGKFRVRVTITADESTSTAYMQLSSLRSEDTAVYYCARGYDDYSFAYWGQGTTVTVSSTREQKLISEEDLKIEVMYPPPYLDNEKSNGTIIHVKGKHLCPSPLFPGPSKPFWVLVVVGGVLACYSLLVTVAFIIFWVRSKRSRLLHSDYMNMTPRRPGPTRKHYQPYAPPRDFAAYRSRVKFSRSADAPAYQQGQNQLYNELNLGRREEYDVLDKRRGRDPEMGGKPRRKNPQEGLYNELQKDKMAEAYSEIGMKGERRRGKGHDGLYQGLSTATKDTYDALHMQALPPRSSGSGEGRGSLLTCGDVEENPGPHMTEYKPTVRLATRDDVPRAVRTLAAAFADYPATRHTVDPDRHIERVTELQELFLTRVGLDIGKVWVADDGAAVAVWTTPESVEAGAVFAEIGPRMAELSGSRLAAQQQMEGLLAPHRPKEPAWFLATVGVSPDHQGKGLGSAVVLPGVEAAERAGVPAFLETSAPRNLPFYERLGFTVTADVEVPEGPRTWCMTRKPGA
modifications: listed as DNA
notes: CAR construct targeting MPL, VB22Bw4 scFv, CD28 costimulatory domain
B3: CD8SP-AB317-(vL-vH)-Myc-CD28z-T2A-PAC(031615-T04): CAR construct targeting MPL, AB317 scFv, CD28 costimulatory domain (protein)
chain: MALPVTALLLPLALLLHAARPDIVLTQSPASLAVSLGQSVTISCRASESVEYYGTSLMQWYQQKPGQPPKLLIYGASNVESGVPARFSGSGSGTDFSLNIHPVEEDDIAMYFCQQSRKVPWTFGGGTKLEIKGGGGSGGGGSGGGGSEVKLVESGGGLVKPGGSRKLSCAASGFTFSSYTMSWVRQTPAKRLEWVATISSGSSTIYYADTVKGRFTISRDNAKNTLFLQMTSLRSEDTAMYYCARRWFLDCWGQGTTLTVSSTREQKLISEEDLKIEVMYPPPYLDNEKSNGTIIHVKGKHLCPSPLFPGPSKPFWVLVVVGGVLACYSLLVTVAFIIFWVRSKRSRLLHSDYMNMTPRRPGPTRKHYQPYAPPRDFAAYRSRVKFSRSADAPAYQQGQNQLYNELNLGRREEYDVLDKRRGRDPEMGGKPRRKNPQEGLYNELQKDKMAEAYSEIGMKGERRRGKGHDGLYQGLSTATKDTYDALHMQALPPRSSGSGEGRGSLLTCGDVEENPGPHMTEYKPTVRLATRDDVPRAVRTLAAAFADYPATRHTVDPDRHIERVTELQELFLTRVGLDIGKVWVADDGAAVAVWTTPESVEAGAVFAEIGPRMAELSGSRLAAQQQMEGLLAPHRPKEPAWFLATVGVSPDHQGKGLGSAVVLPGVEAAERAGVPAFLETSAPRNLPFYERLGFTVTADVEVPEGPRTWCMTRKPGA
modifications: listed as DNA
notes: CAR construct targeting MPL, AB317 scFv, CD28 costimulatory domain
B4: CD8SP-12E10-(vL-vH)-Myc-CD28z-T2A-PAC(031615-S03): CAR construct targeting MPL, 12E10 scFv, CD28 costimulatory domain (protein)
chain: MALPVTALLLPLALLLHAARPDQVQLQQSGPGLVKPSETLSLTCTVSGDSISSYYWSWIRQPPGKGLEWIGYIYYSGSTNYNPSLKSRVTISVDTSKSQFSLKLSSVTAADTAVYYCARGRYFDVWGRGTMVTSSGGGGSGGGGSGGGGSSSYVLTQPPSVSGSPGQSITISCTGTSSDVGGYNYVSWYQQHPGKAPKLMIYEGSKRPSGVSNRFSGSKSGNTASLTISGLQAEDEADYYCSSYTTRSTRVFGGGTKLTVLGAAATREQKLISEEDLKIEVMYPPPYLDNEKSNGTIIHVKGKHLCPSPLFPGPSKPFWVLVVVGGVLACYSLLVTVAFIIFWVRSKRSRLLHSDYMNMTPRRPGPTRKHYQPYAPPRDFAAYRSRVKFSRSADAPAYQQGQNQLYNELNLGRREEYDVLDKRRGRDPEMGGKPRRKNPQEGLYNELQKDKMAEAYSEIGMKGERRRGKGHDGLYQGLSTATKDTYDALHMQALPPRSSGSGEGRGSLLTCGDVEENPGPHMTEYKPTVRLATRDDVPRAVRTLAAAFADYPATRHTVDPDRHIERVTELQELFLTRVGLDIGKVWVADDGAAVAVWTTPESVEAGAVFAEIGPRMAELSGSRLAAQQQMEGLLAPHRPKEPAWFLATVGVSPDHQGKGLGSAVVLPGVEAAERAGVPAFLETSAPRNLPFYERLGFTVTADVEVPEGPRTWCMTRKPGA
modifications: listed as DNA
notes: CAR construct targeting MPL, 12E10 scFv, CD28 costimulatory domain
B5: hTPO-(1-187)-Myc-CD28z-T2A-PAC(031915-U04): CAR targeting MPL: receptor binding domain of human thrombopoietin fused to CD28 and CD3z domains (protein)
chain: MELTELLLVVMLLLTARLTLSSPAPPACDLRVLSKLLRDSHVLHSRLSQCPEVHPLPTPVLLPAVDFSLGEWKTQMEETKAQDILGAVTLLLEGVMAARGQLGPTCLSSLLGQLSGQVRLLLGALQSLLGTQLPPQGRTTAHKDPNAIFLSFQHLLRGKVRFLMLVGGSTLCVRRAPPTTAVPSRTSTREQKLISEEDLKIEVMYPPPYLDNEKSNGTIIHVKGKHLCPSPLFPGPSKPFWVLVVVGGVLACYSLLVTVAFIIFWVRSKRSRLLHSDYMNMTPRRPGPTRKHYQPYAPPRDFAAYRSRVKFSRSADAPAYQQGQNQLYNELNLGRREEYDVLDKRRGRDPEMGGKPRRKNPQEGLYNELQKDKMAEAYSEIGMKGERRRGKGHDGLYQGLSTATKDTYDALHMQALPPRSSGSGEGRGSLLTCGDVEENPGPHMTEYKPTVRLATRDDVPRAVRTLAAAFADYPATRHTVDPDRHIERVTELQELFLTRVGLDIGKVWVADDGAAVAVWTTPESVEAGAVFAEIGPRMAELSGSRLAAQQQMEGLLAPHRPKEPAWFLATVGVSPDHQGKGLGSAVVLPGVEAAERAGVPAFLETSAPRNLPFYERLGFTVTADVEVPEGPRTWCMTRKPGA
modifications: listed as DNA
B6: mTPO-(1-187)-Myc-CD28z-T2A-PAC(031915-V03): CAR targeting MPL: receptor binding domain of mouse thrombopoietin fused to CD28 and CD3z domains (protein)
chain: MELTDLLLAAMLLAVARLTLSSPVAPACDPRLLNKLLRDSHLLHSRLSQCPDVDPLSIPVLLPAVDFSLGEWKTQTEQSKAQDILGAVSLLLEGVMAARGQLEPSCLSSLLGQLSGQVRLLLGALQGLLGTQLPLQGRTTAHKDPNALFLSLQQLLRGKVRFLLLVEGPTLCVRRTLPTTAVPSSTSTREQKLISEEDLKIEVMYPPPYLDNEKSNGTIIHVKGKHLCPSPLFPGPSKPFWVLVVVGGVLACYSLLVTVAFIIFWVRSKRSRLLHSDYMNMTPRRPGPTRKHYQPYAPPRDFAAYRSRVKFSRSADAPAYQQGQNQLYNELNLGRREEYDVLDKRRGRDPEMGGKPRRKNPQEGLYNELQKDKMAEAYSEIGMKGERRRGKGHDGLYQGLSTATKDTYDALHMQALPPRSSGSGEGRGSLLTCGDVEENPGPHMTEYKPTVRLATRDDVPRAVRTLAAAFADYPATRHTVDPDRHIERVTELQELFLTRVGLDIGKVWVADDGAAVAVWTTPESVEAGAVFAEIGPRMAELSGSRLAAQQQMEGLLAPHRPKEPAWFLATVGVSPDHQGKGLGSAVVLPGVEAAERAGVPAFLETSAPRNLPFYERLGFTVTADVEVPEGPRTWCMTRKPGA
modifications: listed as DNA

Target: T1, extracellular domain (ECD) of human MPL (Homo sapiens, UniProt P40238)
T1 construct: made in house; host or cells: 293FT cells, conditioned medium used unpurified
Assay: NLuc assay to detect CAR: binding of MPL-ECD-GGSG-NLuc-AcV5 supernatant to CAR-expressing cells
Details: T cells expressing the CAR
From the text: A frequent problem in the field of chimeric antigen receptors is lack of a sensitive and specific assay that can detect cells that express chimeric antigen receptors. To detect the expression of CAR targeting CD19 and MPL, we fused the extracellular domains (ECD) of human CD19 and human MPL, including their signal peptides, in frame with nucleotide sequence encoding a Gly-Gly-Ser-Gly linker, NLuc (without a secretory signal) and an AcV5 epitope tag. In the case of CD19 construct, a FLAG tag was inserted between the signal peptide and the beginning of the extracellular domain. The whole cassette was cloned downstream of the human EF1α promoter into the lentiviral vector pLenti-EF1 to make constructs pLenti-EF1-FLAG-CD19-ECD-GGSG-NLuc-AcV5 and pLenti-EF1-MPL-ECD-GGSG-NLuc-AcV5, respectively. The nucleic acid sequences of the insert fragments are provided in SEQ ID NO: 926 and SEQ ID NO: 925, respectively. The protein sequences of the insert fragments are provided in SEQ ID NO: 2671 and SEQ ID NO: 2670, respectively. The constructs were transfected into 293FT cells by calcium phosphate co-precipitation method. Approximately 20 h post-transfection, the cell culture media was replaced with fresh medium. The conditioned media containing the secreted FLAG-CD19-ECD-GGSG-NLuc-AcV5 (also referred to as CD19-GGSG-NLuc-AcV5) and MPL-ECD-GGSG-NLuc-AcV5 (also referred to as MPL-GGSG-NLuc-AcV5) proteins was collected 48-72 h later.
Next day morning, approximately 18 hours post-transfection, cells were collected by pipetting up and down in 1.5 ml tubes. The tubes were spun down at 1500 RPM for 5 minutes. Then the cells were washed once with wash buffer (1% FBS in PBS), followed by incubation with 1001 of indicated secretory forms of GGS NLuc supernatants. The cells were incubated at 4° C. for 1 hour.
After the incubation, cells were washed 5 times with wash buffer (1 ml each wash). Finally the pellet was resuspended in 200 μl wash buffer. Resuspended cells were placed in a 384 well plate in triplicate (25 μl each). Luciferase activity was measured using a BioTek synergy H4 plate reader after addition of NLuc assay buffer (Promega) containing native coelenterazine (25 μl each well) directly to each well (one at a time).
T cells expressing the different MPL CAR constructs were incubated with MPL-GGSG-NLuc-AcV5 and CD19-GGSG-NLuc-AcV5 supernatants and after extensive washes assayed for NLuc activity essentially as described in the preceding example.

| Molecule | binding to MPL-GGSG-NLuc AcV5 (NLuc assay) |
| --- | --- |
| B1 | strong binding |
| B2 | strong binding |
| B3 | modest binding |
| B4 | modest binding |

Same assay, conditions: transiently transfected 293FT cells

| Molecule | binding to MPL-ECD-GGSG-NLuc-AcV5 (NLuc assay) |
| --- | --- |
| B5 | modest binding |
| B6 | modest binding |
